Earlier results, collected in US11001595B2, “Pyrimidine compounds and pyrimido indole compounds and methods of use” (Duquesne University of the Holy Spirit, priority 2014, dated 2021).

By UniProt entry, the sequences of proteins in these tests, tags left out. Residues count along the entry.
UniProt P09619, 33-1106: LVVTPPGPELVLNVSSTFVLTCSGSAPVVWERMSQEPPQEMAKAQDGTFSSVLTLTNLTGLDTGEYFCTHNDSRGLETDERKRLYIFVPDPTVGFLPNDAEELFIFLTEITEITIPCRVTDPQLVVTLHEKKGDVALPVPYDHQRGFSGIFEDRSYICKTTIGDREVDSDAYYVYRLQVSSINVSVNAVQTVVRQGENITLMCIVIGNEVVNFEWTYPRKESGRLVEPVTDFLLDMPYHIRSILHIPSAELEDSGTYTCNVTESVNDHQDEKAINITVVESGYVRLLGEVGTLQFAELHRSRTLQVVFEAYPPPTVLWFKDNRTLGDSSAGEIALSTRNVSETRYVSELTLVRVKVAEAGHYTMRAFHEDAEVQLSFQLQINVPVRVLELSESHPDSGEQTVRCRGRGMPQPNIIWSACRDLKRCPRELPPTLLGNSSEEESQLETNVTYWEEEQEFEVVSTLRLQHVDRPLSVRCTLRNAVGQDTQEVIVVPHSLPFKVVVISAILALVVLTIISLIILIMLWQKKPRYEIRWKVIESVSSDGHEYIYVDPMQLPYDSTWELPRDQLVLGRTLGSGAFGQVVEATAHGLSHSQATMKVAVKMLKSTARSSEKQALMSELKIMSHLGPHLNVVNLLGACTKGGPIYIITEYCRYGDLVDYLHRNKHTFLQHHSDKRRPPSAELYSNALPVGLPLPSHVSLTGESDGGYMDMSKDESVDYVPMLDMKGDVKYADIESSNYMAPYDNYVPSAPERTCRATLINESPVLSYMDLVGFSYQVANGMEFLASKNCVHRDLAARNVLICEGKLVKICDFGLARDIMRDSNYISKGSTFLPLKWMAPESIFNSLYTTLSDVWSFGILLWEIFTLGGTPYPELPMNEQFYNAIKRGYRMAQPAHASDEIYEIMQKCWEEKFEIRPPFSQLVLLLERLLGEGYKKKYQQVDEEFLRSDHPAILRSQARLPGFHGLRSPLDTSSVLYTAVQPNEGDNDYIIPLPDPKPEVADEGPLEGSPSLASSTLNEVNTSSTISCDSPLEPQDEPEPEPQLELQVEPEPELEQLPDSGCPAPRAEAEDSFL

Target: PDGFR-β (Homo sapiens (Human), UniProt P09619)
Settings: read-out: PDGFR-β Kinase Inhibition IC50; cited from earlier work

## DMBI
  IC50: 3.75 ± 0.31 µM
